Target: Histamine H3 receptor (Homo sapiens, UniProt Q9Y5N1)
Test: Binding affinity to human histamine H3 receptor

Chains of the proteins cited; added tags and fusions are not shown. Lines headed by an entry give the natural chain unless they say otherwise; changes in a name come on top.
UniProt Q9Y5N1: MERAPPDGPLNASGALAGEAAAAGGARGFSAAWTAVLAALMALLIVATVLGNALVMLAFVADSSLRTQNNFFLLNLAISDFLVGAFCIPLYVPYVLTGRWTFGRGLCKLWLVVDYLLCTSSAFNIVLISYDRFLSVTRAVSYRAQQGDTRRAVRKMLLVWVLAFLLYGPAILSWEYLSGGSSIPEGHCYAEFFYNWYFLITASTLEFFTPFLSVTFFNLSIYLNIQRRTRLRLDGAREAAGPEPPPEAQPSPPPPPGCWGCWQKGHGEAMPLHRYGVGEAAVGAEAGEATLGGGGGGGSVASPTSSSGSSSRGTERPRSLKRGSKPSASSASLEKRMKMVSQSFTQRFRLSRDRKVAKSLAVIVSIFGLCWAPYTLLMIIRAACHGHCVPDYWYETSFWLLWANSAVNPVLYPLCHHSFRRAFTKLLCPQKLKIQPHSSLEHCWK

Ki: 4 nM
SMILES: COc1ccc([C@@H]2CN(C)Cc3cc(OCCCN4CCC(F)CC4)ccc32)cc1
